Measured values reported in ChEMBL document CHEMBL1127550, “(R)-methanandamide: a chiral novel anandamide possessing higher potency and metabolic stability” (J Med Chem, 1994).

Chains of the proteins cited; added tags and fusions are not shown. Lines headed by an entry give the natural chain unless they say otherwise; changes in a name come on top.
UniProt Q9QZN9: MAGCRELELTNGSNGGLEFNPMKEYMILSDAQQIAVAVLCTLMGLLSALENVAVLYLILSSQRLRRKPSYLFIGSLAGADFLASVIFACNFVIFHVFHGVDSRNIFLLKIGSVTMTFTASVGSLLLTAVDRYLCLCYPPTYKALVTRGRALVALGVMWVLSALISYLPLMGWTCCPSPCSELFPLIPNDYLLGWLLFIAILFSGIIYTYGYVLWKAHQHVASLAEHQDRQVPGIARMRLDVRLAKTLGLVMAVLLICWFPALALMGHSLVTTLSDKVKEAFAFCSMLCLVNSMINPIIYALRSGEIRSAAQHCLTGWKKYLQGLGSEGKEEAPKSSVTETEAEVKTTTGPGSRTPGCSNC
UniProt P20272: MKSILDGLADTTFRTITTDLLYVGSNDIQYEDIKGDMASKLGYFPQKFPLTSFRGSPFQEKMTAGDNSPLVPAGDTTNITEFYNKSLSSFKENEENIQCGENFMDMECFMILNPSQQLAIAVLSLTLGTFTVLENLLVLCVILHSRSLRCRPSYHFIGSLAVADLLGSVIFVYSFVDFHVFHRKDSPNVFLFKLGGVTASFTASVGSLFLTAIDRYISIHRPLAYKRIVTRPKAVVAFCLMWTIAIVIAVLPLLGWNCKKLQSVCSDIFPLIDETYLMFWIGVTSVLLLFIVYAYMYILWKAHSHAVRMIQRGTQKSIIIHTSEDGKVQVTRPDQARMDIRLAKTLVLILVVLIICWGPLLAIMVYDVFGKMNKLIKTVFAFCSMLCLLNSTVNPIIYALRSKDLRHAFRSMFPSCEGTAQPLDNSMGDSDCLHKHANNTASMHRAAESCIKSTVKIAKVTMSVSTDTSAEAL

Experiments:
Cannabinoid receptor [1] = molecular target: T1, Cannabinoid receptor (Rattus norvegicus, UniProt Q9QZN9+P20272); experiment: Binding affinity for the cannabinoid receptor in the presence of phenylmethanesulfonyl fluoride (PMSF) was determined in rat fore brain membranes; assay type: cell membranes, Membrane
Cannabinoid receptor [2] = molecular target: T1, Cannabinoid receptor; experiment: Binding affinity for the cannabinoid receptor in the absence of phenylmethanesulfonyl fluoride (PMSF) was determined in rat fore brain membranes; assay type: cell membranes, Membrane

Row | Structure (SMILES) | Ki (Cannabinoid receptor [1]) [nM] | Ki (Cannabinoid receptor [2]) [nM]
1 | CCCCC/C=C\C/C=C\C/C=C\C/C=C\CCCC(=O)NCCO [ANANDAMIDE] | 78 | > 1180
2 | CCCCC/C=C\C/C=C\C/C=C\C/C=C\CCCC(=O)N[C@H](C)CO [METHANANDAMIDE] | 20 | 28
3 | CCCCC/C=C\C/C=C\C/C=C\C/C=C\CCCC(=O)N[C@@H](C)CO | 173 | 268
